Where only a bound is given, the exact number is not on record here.

Protein sequences, listed by entry. Tags and fused reporters are not part of them. Residues count along the entry.
UniProt Q9GZZ6, 25-450: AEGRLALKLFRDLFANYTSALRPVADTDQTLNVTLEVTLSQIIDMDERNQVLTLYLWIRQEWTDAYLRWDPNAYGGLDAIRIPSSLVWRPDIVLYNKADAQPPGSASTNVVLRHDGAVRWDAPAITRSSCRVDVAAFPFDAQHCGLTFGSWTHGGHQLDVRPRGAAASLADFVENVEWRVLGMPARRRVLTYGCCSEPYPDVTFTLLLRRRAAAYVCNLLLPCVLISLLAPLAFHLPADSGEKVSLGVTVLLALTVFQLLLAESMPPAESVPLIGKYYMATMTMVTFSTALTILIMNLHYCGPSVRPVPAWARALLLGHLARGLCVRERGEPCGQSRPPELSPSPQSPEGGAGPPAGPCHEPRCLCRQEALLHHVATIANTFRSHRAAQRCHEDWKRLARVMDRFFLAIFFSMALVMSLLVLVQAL
UniProt Q9UGM1, 26-479 limits assumed: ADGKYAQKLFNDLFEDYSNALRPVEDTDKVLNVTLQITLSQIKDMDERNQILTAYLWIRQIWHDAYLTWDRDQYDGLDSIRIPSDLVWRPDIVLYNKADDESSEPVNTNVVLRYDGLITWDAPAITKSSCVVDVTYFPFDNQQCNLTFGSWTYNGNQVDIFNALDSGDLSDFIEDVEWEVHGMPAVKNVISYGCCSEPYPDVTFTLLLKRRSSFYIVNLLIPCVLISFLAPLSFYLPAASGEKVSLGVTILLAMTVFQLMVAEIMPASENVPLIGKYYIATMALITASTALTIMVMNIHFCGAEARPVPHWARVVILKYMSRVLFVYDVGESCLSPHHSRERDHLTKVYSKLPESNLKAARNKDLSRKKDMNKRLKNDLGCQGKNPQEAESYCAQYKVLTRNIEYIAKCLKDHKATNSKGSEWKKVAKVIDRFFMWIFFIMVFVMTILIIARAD

One test has as its target T1, human α9α10 nAChR (Homo sapiens, UniProt Q9GZZ6+Q9UGM1).
T1 construct: expressed in transfected cells; host or cells: oocytes
The test is described as follows: cell-based.
Broadly, the IC50 is the point on the concentration scale where inhibition reaches its midpoint. A low value points to inhibition by little substance. On to `CC(C)C[C@H](NC(=O)[C@@H]1CSSC[C@@H]2NC(=O)[C@@H](NC(=O)CN)C[Se][Se]C[C@H](NC(=O)[C@H](CCCNC(=N)N)NC(=O)[C@@H]3CCCN3C(=O)[C@H](CC(=O)O)NC(=O)[C@H]([C@@H](C)O)NC2=O)C(=O)N[C@@H](CCCNC(N)=O)C(=O)N[C@@H](Cc2ccc(O)c(I)c2)C(=O)N[C@@H](CCC(N)=O)C(=O)N1)C(=O)O` [SEQ ID NO:29], for which the IC50 stood at 135 nM. On the same count and under the same terms, in the case of `N=C(N)NCCC[C@H](NC(=O)[C@@H]1CSSC[C@@H]2NC(=O)[C@@H](NC(=O)CN)C[Se][Se]C[C@H](NC(=O)[C@H](CCCNC(=N)N)NC(=O)[C@@H]3CCCN3C(=O)[C@H](CC(=O)O)NC(=O)[C@H](CO)NC2=O)C(=O)N[C@@H](CCCNC(=N)N)C(=O)N[C@@H](Cc2ccc(O)cc2)C(=O)N[C@@H](CCCNC(=N)N)C(=O)N1)C(=O)O` [SEQ ID NO:30] it was 242 nM; in that of `N=C(N)NCCC[C@H](NC(=O)[C@@H]1CSSC[C@@H]2NC(=O)[C@@H](NC(=O)CN)CSSC[C@H](NC(=O)[C@H](CCCNC(=N)N)NC(=O)[C@@H]3CCCN3C(=O)[C@H](CC(=O)O)NC(=O)[C@H](CO)NC2=O)C(=O)N[C@@H](CCCNC(=N)N)C(=O)N[C@@H](Cc2ccc(O)c(I)c2)C(=O)N[C@@H](CCCNC(=N)N)C(=O)N1)C(=O)O` [SEQ ID NO:41], 107 nM. Same read-out and setting: in the case of `C[C@@H](O)[C@@H]1NC(=O)[C@@H]2CSSC[C@@H](C(=O)N[C@@H](CCCNC(=N)N)C(=O)O)NC(=O)[C@H](CCC(N)=O)NC(=O)[C@H](Cc3ccc(O)c(I)c3)NC(=O)[C@H](CCCNC(N)=O)NC(=O)[C@H](C[Se][Se]C[C@H](NC(=O)CN)C(=O)N2)NC(=O)[C@H](CCCNC(=N)N)NC(=O)[C@@H]2CCCN2C(=O)[C@H](CC(=O)O)NC1=O` [SEQ ID NO:28] it was 87 nM; in that of `N=C(N)NCCC[C@H](NC(=O)[C@@H]1CSSC[C@@H]2NC(=O)[C@@H](NC(=O)CN)CSSC[C@H](NC(=O)[C@H](CCCNC(=N)N)NC(=O)[C@@H]3CCCN3C(=O)[C@H](CC(=O)O)NC(=O)[C@H](CO)NC2=O)C(=O)N[C@@H](CCCNC(N)=O)C(=O)N[C@@H](Cc2ccc(O)c(I)c2)C(=O)N[C@@H](CCCNC(=N)N)C(=O)N1)C(=O)O` [SEQ ID NO:43], 46 nM; in that of `N=C(N)NCCC[C@H](NC(=O)[C@@H]1CSSC[C@@H]2NC(=O)[C@@H](NC(=O)CN)CSSC[C@H](NC(=O)[C@H](CCCNC(=N)N)NC(=O)[C@@H]3CCCN3C(=O)[C@H](CC(=O)O)NC(=O)[C@H](CO)NC2=O)C(=O)N[C@@H](CCCN)C(=O)N[C@@H](Cc2ccc(O)cc2)C(=O)N[C@@H](CCCNC(=N)N)C(=O)N1)C(=O)O` [SEQ ID NO:12], greater than 1000 nM.

Another test concerns the target T2, α9α10 nAChR (Rattus norvegicus, UniProt P43144+Q9JLB5).
T2 construct: expressed in transfected cells; host or cells: oocytes
The test is described as follows: cell-based.
Turning to `CC(=O)NCCC[C@@H]1NC(=O)[C@@H]2CSSC[C@H](NC(=O)CN)C(=O)N[C@@H](CSSC[C@@H](C(=O)N[C@@H](CCCNC(=N)N)C(=O)O)NC(=O)[C@H](CCCNC(=N)N)NC(=O)[C@H](Cc3ccc(O)cc3)NC1=O)C(=O)N[C@@H](CO)C(=O)N[C@@H](CC(=O)O)C(=O)N1CCC[C@H]1C(=O)N[C@@H](CCCNC(=N)N)C(=O)N2` [SEQ ID NO:13], the IC50 is greater than 1000 nM. `N=C(N)NCCC[C@H](NC(=O)[C@@H]1CSSC[C@@H]2NC(=O)[C@@H](NC(=O)CN)CSSC[C@H](NC(=O)[C@H](CCCNC(=N)N)NC(=O)[C@@H]3CCCN3C(=O)[C@H](CC(=O)O)NC(=O)[C@H](CO)NC2=O)C(=O)N[C@@H](CCCNC(=N)N[N+](=O)[O-])C(=O)N[C@@H](Cc2ccc(O)cc2)C(=O)N[C@@H](CCCNC(=N)N)C(=O)N1)C(=O)O` [SEQ ID NO:10]: the IC50 was 2.3 nM. On the same count and under the same terms, in the case of `N=C(N)NCCC[C@H](NC(=O)[C@@H]1CSSC[C@@H]2NC(=O)[C@@H](NC(=O)CN)CSSC[C@H](NC(=O)[C@H](CCCNC(=N)N)NC(=O)[C@@H]3CCCN3C(=O)[C@H](CC(=O)O)NC(=O)[C@H](CO)NC2=O)C(=O)N[C@@H](CCCNC(N)=O)C(=O)N[C@@H](Cc2ccc(O)c(I)c2)C(=O)N[C@@H](CCCNC(=N)N)C(=O)N1)C(=O)O` [SEQ ID NO:18] it was 1.1 nM. Still for that read-out and setting: in the case of `N=C(N)NCCC[C@H](NC(=O)[C@@H]1CSSC[C@@H]2NC(=O)[C@@H](NC(=O)CN)CSSC[C@H](NC(=O)[C@H](CCCNC(=N)N)NC(=O)[C@@H]3CCCN3C(=O)[C@H](CC(=O)O)NC(=O)[C@H](CO)NC2=O)C(=O)N[C@@H](CCCN)C(=O)N[C@@H](Cc2ccc(O)cc2)C(=O)N[C@@H](CCCNC(=N)N)C(=O)N1)C(=O)O` [SEQ ID NO:12] it was greater than 1000 nM; in that of `N=C(N)NCCC[C@H](NC(=O)[C@@H]1CSSC[C@@H]2NC(=O)[C@@H](NC(=O)CN)CSSC[C@H](NC(=O)[C@H](CCCNC(=N)N)NC(=O)[C@@H]3CCCN3C(=O)[C@H](CC(=O)O)NC(=O)[C@H](CO)NC2=O)C(=O)N[C@@H](CCCNC(=N)N[N+](=O)[O-])C(=O)N[C@@H](Cc2ccc(O)c(I)c2)C(=O)N[C@@H](CCCNC(=N)N)C(=O)N1)C(=O)O` [SEQ ID NO:19], 1.3 nM; in that of `N=C(N)NCCC[C@H](NC(=O)[C@@H]1CSSC[C@@H]2NC(=O)[C@@H](NC(=O)CN)CSSC[C@H](NC(=O)[C@H](CCCNC(=N)N)NC(=O)[C@@H]3CCCN3C(=O)[C@H](CC(=O)O)NC(=O)[C@H](CO)NC2=O)C(=O)N[C@@H](CCCNC(=N)N)C(=O)N[C@@H](Cc2ccc(O)c(I)c2)C(=O)N[C@@H](CCCNC(=N)N)C(=O)N1)C(=O)O` [SEQ ID NO:15], 3.5 nM.

Values taken from patent US9284358B2 (UNIVERSITY OF UTAH RESEARCH FOUNDATION, priority 2006, dated 2016).
